Results published in article PMC6977318, “In vitro and in situ study on characterization and mechanism of the intestinal absorption of 2,3,5,4′-tetrahydroxy-stilbene-2-O-β-D-glucoside” (BMC Pharmacology & Toxicology, 2020).

Test system: P-gp
Experiment: Effect of P-gp inhibitors on intestinal absorption of TSG, in situ perfusion
Conditions: inhibitor 25 μg·mL^− 1, p < 0.05, rat

Ka values of TSG in presence of inhibitor: increased significantly
PA values of TSG in presence of inhibitor: increased significantly
SMILES: C=C[C@H]1C[N@@]2CC[C@H]1C[C@@H]2[C@@H](O)c1ccnc2ccc(OC)cc12 [quinidine]
